Cneo AK release – causes C. neoformans cell lysis. adenylate kinase release luminescence, 4 h; normalised: neutral wells 0, clomiphene wells 100. lysis activity, % at 15 µM. 360,000 compounds, 0.2% hits. AID 651654;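 active = mean lysis activity across replicates of at least 80%, whatever share of replicates individually reach that level; inactive = mean lysis activity below 80%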
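read-out = cell lysis signal | test system = log-phase Cryptococcus neoformans yeast cells | input = cells at 5 × 10^6 per mL | medium = fresh YPD growth medium | signal = luminescent adenylate kinase detection reagent | timing = 4 h at 37 °C static, read 1 h later | dosing = single dose | controls = Clomiphene as positive lysis control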
DENV2 CPE – inhibitors of DENV2 cytopathic effect | DENV2-infected cells, cytopathic effect rescue, plate reader | AID 651640 | 350,000 compounds, 1.7% hits | CPE inhibition, % at 9.99 µM; in the data active = CPE inhibition above about 20%, passing the limit was not always enough; inconclusive = no clear call, values can overlap the other calls; tested in BHK-21 cells
E-sel inducer – induces E-selectin expression in human endothelial cells. HUVEC E-selectin immunofluorescence imaging; normalized: neutral wells 0, TNF-alpha wells 100. activation, % at 7.58 µM. 260,000 compounds, 0.37% hits. P16581. AID 686992;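 active = mean E-selectin-positive cell signal at least 10% of the positive control, reached in at least 60% of replicates, without over 20% cell loss; inconclusive = no rule given, readout overlaps actives, possibly toxicity-flagged; inactive = the rest, including those meeting only one limit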
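assay system = HUVEC, human umbilical vein endothelial cells | input = 3,000 HUVEC seeded per well | medium = EGM-2 growth medium on 0.1% gelatin-coated wells | dosing = one compound dose added by pin transfer | signal = immunofluorescence imaging | read-out basis = % PE-positive cells | control set = TNF-alpha, DMSO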
UUG fidelity – modulators of start codon recognition fidelity in yeast; AID 602363; activity score, % at 18.7 µM; S. cerevisiae UUG-firefly luciferase reporter, luminescence/redox ratio; 0.13% of 350,000 active;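 active = replicate mean at a twofold rise or more, about +100% in these data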;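 note: firefly luciferase made from a UUG start codon reports start codon fidelity; reporter light over untreated wells divided by growth signal over untreated wells; some hits fall short of that in this replicate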
Numbers stand for hits; . = inactive; ? = inconclusive; / = no result; ! = repeats disagree. Sampled rows, rich in hits. Any-hit rate of the full collection: about 1.8%.

SMILES	Cneo AK release	DENV2 CPE	E-sel inducer	UUG fidelity
O=C(O)C1=C[C@@H](c2ccc(C(F)(F)F)cc2)C[C@@H](OCCCCO)O1	.	.	.	.
COc1ccc(NC(=O)N[C@@H]2CC[C@@H](CCNC(=O)c3ccccc3F)O[C@@H]2CO)cc1	.	.	.	.
CCS(=O)(=O)Nc1ccc2c(c1)C(=O)N(C)C[C@@H](OC)[C@@H](C)CN(C(=O)C1CC1)[C@H](C)CO2	.	.	.	.
COc1ccccc1-c1ccc2c(c1)[C@@H]1[C@@H](CCN1S(=O)(=O)c1cccc(C)c1)[C@H](CO)N2	.	.	.	.
Cc1ccc(S(=O)(=O)Nc2ccc3c(c2)C(=O)N([C@H](C)CO)C[C@@H](C)[C@@H](CN(C)S(=O)(=O)c2cn(C)cn2)O3)cc1	.	.	.	.
O=C(NCc1ccccc1)C1=C[C@@H](C2CC2)C[C@@H](OCc2ccc(CO)cc2)O1	.	26.1!	.	.
O=C(NCc1ccccc1)C1=C[C@H](C2CCCCC2)C[C@H](OCc2ccc(CO)cc2)O1	.	.	.	.
CO[C@H]1CN(C)C(=O)c2cc(NS(=O)(=O)CC(F)(F)F)ccc2OC[C@@H](C)N(Cc2nccs2)C[C@H]1C	.	.	.	/
C[C@H]1CN([C@@H](C)CO)C(=O)Cc2cc(NC(=O)Nc3ccc(F)cc3)ccc2O[C@H]1CN(C)C(=O)Nc1ccc(F)cc1	.	.	.	.
CCN(Cc1ccc(OC)c(COC)c1)CC1CCCN(CCc2cccc(F)c2)C1 (centres undefined)	.	.	/	.
CCN(Cc1ccc(OC)c(COC)c1)CC1CCCN(CCc2cccc(OC)c2)C1 (centres undefined)	.	25.2	/	.
CN1c2ccc(-c3ccc(F)cc3)cc2[C@H]2[C@H](CCN2C(=O)c2ccncc2)[C@@H]1CO	.	?	.	.
C[C@@H]1CN([C@H](C)CO)C(=O)c2cccc(NC(=O)c3ccncc3)c2O[C@@H]1CN(C)Cc1ccc(-c2ccccc2)cc1	100.8	?	.	.
C[C@H]1CN([C@@H](C)CO)C(=O)c2cccc(NS(C)(=O)=O)c2O[C@@H]1CN(C)Cc1ccc(C(=O)Nc2ccccc2N)cc1	/	75.1	/	/
C[C@@H]1CN([C@H](C)CO)C(=O)c2cccc(NS(C)(=O)=O)c2O[C@H]1CN(C)Cc1ccc(C(=O)Nc2ccccc2N)cc1	/	.	/	/
C[C@H](CO)N1C[C@H](C)[C@@H](CN(C)Cc2ccc(C(=O)Nc3ccccc3N)cc2)Oc2c(NS(=O)(=O)c3cccs3)cccc2C1=O	/	.	.	/
C[C@H]1CN([C@@H](C)CO)C(=O)c2cccc(NC(=O)c3ccncc3)c2O[C@H]1CN(C)Cc1ccc(C(=O)Nc2ccccc2N)cc1	/	43.8	50.9	/
C[C@H]1CN([C@@H](C)CO)C(=O)c2cccc(NS(=O)(=O)c3cccs3)c2O[C@@H]1CN(C)Cc1ccc(C(=O)Nc2ccccc2N)cc1	/	.	392.0	/
Cc1ccc(S(=O)(=O)Nc2cccc3c2O[C@@H](CN(C)S(=O)(=O)c2ccc(F)cc2)[C@@H](C)CN([C@@H](C)CO)C3=O)cc1	.	.	.	.
COCC(=O)Nc1ccc2c(c1)C(=O)N(C)[C@@H]1CC[C@@H](CC(=O)NCCc3ccncc3)O[C@@H]1CO2	.	.	.	.
C[C@H]1CN([C@@H](C)CO)C(=O)c2cc(NC(=O)C3CCCCC3)ccc2O[C@H]1CN(C)Cc1ccc(C(=O)Nc2ccccc2N)cc1	.	.	29.2	.
C[C@H]1CN([C@@H](C)CO)C(=O)c2cccc(NC(=O)C3CCCCC3)c2O[C@@H]1CN(C)Cc1ccc(C(=O)Nc2ccccc2N)cc1	.	80.1	.	.
C[C@H](CO)N1C[C@H](C)[C@H](CN(C)Cc2ccc(C(=O)Nc3ccccc3N)cc2)Oc2c(NC(=O)C3CCCCC3)cccc2C1=O	.	?	.	.
C[C@@H]1CN([C@@H](C)CO)C(=O)c2cc(NC(=O)C3CC3)ccc2O[C@H]1CN(C)Cc1ccc(C(=O)Nc2ccccc2N)cc1	.	.	.	.
COc1ccccc1S(=O)(=O)N[C@H]1CC[C@@H](CC(=O)N2CCN(C)CC2)O[C@@H]1CO	.	.	.	.
CCC(=O)N1C[C@@H](C)[C@@H](OC)CN(C)C(=O)c2ccc(NC(=O)c3ccc(F)cc3)cc2OC[C@@H]1C	.	.	.	.
C/C=C/c1cnc2c(c1)C(=O)N([C@@H](C)CO)C[C@H](C)[C@@H](CN(C)C(=O)C1CCC1)O2	/	/	.	/
CN(C)C(=O)[C@H]1[C@H](CO)[C@H]2Cn3c(ccc(-c4ccccc4)c3=O)[C@@H]1N2Cc1ccccn1	.	.	.	/
